Test results as given in PubChem BioAssay AID504842 (National Center for Advancing Translational Sciences (NCATS), 2011).
The list shows a part of the results, in another mix than the full data. Some tests of the compounds listed are not included; inactive here does not mean inactive elsewhere. Activity calls are given as the source filed them. Calls follow the shape of the dose curve; as a rule, active = well fitted inhibition curve with a large enough effect; inconclusive = small, poorly fitted or top-dose-only effect; inactive = flat fitted curve, though single readings scatter.
% is scaled to controls: 0 for no effect and ±100 for the full control effect.
Also: nearly all actives have a fitted effect of over 80% in size.

Each compound was assayed on Chaperonin Mm-Cpn (Methanococcus maripaludis) (assay: Inhibitors of TCP-1 ring complex (TRiC) of Methanococcus maripaludis (MmCpn): qHTS). Details: purified Mm-Cpn ATPase, ADP Transcreener TR-FRET; at 76.9 µM (top of the series).
Excerpt: The eukaryotic chaperonin TRiC (for TCP-1 ring complex) is an essential and conserved chaperone required for the folding and activation of 10-15% of the proteins encoded by the human genome. […] The TRiC complex consist of two stacked 7-9 membered rings, each containing a central cavity. Substrates are folded within the cavity in an ATP-dependent manner. TRiC is a complex of eight different, essential proteins. As each of the genes encoding the eight subunits is essential for cell viability and no protocol has been developed to over-express this enzyme to high levels. That is why several groups studying the TRiC chaperonin have turned to the archaeal homolog of TRiC, Methanococcus maripaludis (Mm-CPN), and have used this enzyme as a model system for the study of the type II chaperonin family. Small molecule inhibitors of the Mm-CPN enzyme would be extremely useful to study the mechanism of chaperonin activity. Importantly, TRiC and Mm-CPN both require ATP hydrolysis for function. Furthermore, the ATP binding sites are highly conserved among these type II chaperonins. This provides us with an easy, well tested and straightforward assay to identify inhibitors of chaperonin activity. The Mm-CPN assay was developed in 1536-well plate format using the HTRF Transcreener ADP assay kit (Cisbio, Bedford, MA). This assay applied the time resolved fluorescence resonance energy transfer (TR-FRET) principle. ATP in the presence of Mm-CPN is converted to ADP + Pi. An antibody labeled with Eu3+-Cryptate specific and bound to ADP labeled with […] (d2) competes with the unlabeled ADP generated by Mm-CPN. The resulting TR-FRET signal is inversely proportional to the concentration of ADP in the sample. In this assay a reduction in TR-FRET signal is observed with ATP turnover. NIH Chemical Genomics Center [NCGC] NIH Molecular Libraries Probe Centers Network [MLPCN] MLPCN Grant: DA030554-01A1 Assay Submitter (PI): Judith Frydman, Stanford University
Purified Mm-CPN was supplied by the laboratory of Dr. Judith Frydman. Protein samples were stored at -80C as single use aliquots. Protein was thawed in ambient temperature water bath and placed on ice once thawed. Buffer was prepared fresh day of screen. The buffer composition below was used to prepare the working solution of the Mm-CPN protein and ATP substrate. The buffer is comprised of 30 mM TRIS pH 7.4, 100mM KCl, 5mM MgCl2, and 1mM DTT. A final concentration of 25nM Mm-CPN and 10uM ATP per well were used in the screen. Instructions according to the manufacturer were followed for the ADP Transcreener kit. Used 1536 well Greiner white, medium binding (MB), solid bottom plates. Plates were read on the PerkinElmer EnVision plate reader using Excitation = 320 nm and Emission = […], 665 nm. Protocol- 1.Dispense 1.5ul per well of working [Mm-CPN] = 50nM (or 75 ng / well) 2.Spin plate at 1000 rpm for 30 seconds 3.23nl of compound transferred per well 4.Incubate at 37degC for 10 minutes 5.Dispense 1.5ul per well of working [ATP] = 20uM 6.Incubate at 37degC for 30 minutes 7.Dispense 3ul per well of Anti-ADP Cryptate / ADP-d2 mix (prepared as instructed by Cisbio) 8.Incubate at ambient for 30 minutes 9.Read using EnVision
In the case of `O=C(NCC1(N2CCCCC2)CCCCC1)c1cc([N+](=O)[O-])ccc1Cl`, the activity, negative = inhibition is reported as inactive: 0.183%.
With `CN1[C@@H]2CC[C@H]1CC(OC(=O)C(O)(c1ccccc1)c1ccccc1)C2` (some centres undefined) the activity, negative = inhibition was inactive: 0.227%.
In the case of `CCN(CC)CC(C)C(C)OC(=O)C(O)(c1ccccc1)c1ccccc1` (centres undefined), the activity, negative = inhibition is reported as inactive: -3.25%.
`COc1cc(SC)ccc1C(=O)NCC1(N(C)C)CCCCC1` was tested, and the activity, negative = inhibition was inactive: -0.0144%.
For `CC(C)N1C(=O)CC2(CCN(CCOC(=O)C(O)(c3ccccc3)c3ccccc3)CC2)C1=O`, the activity, negative = inhibition was inactive: 1.44%.
`Cc1ccc(C(=O)NCC2(N3CCCCC3)CCCCC2)cc1` was tested, and the activity, negative = inhibition was inactive: -1.77%.
In the case of `Cc1ccccc1C(=O)NCC1(N2CCCCC2)CCCCC1`, the activity, negative = inhibition is reported as inactive: -2.01%.
`CN(C)C1CCCC1OC(=O)C(O)(c1ccccc1)c1ccccc1` (centres undefined) was tested, and the activity, negative = inhibition was inactive: 1.9%.
For `CN(C)c1ccc(C(=O)NCC2(N(C)C)CCCCC2)cc1`, the activity, negative = inhibition was inactive: -0.845%.
With `C=CCN1CCN(CCOC(=O)C(O)(c2ccccc2)c2ccccc2)CC1` the activity, negative = inhibition was inactive: -0.775%.
`O=C(NCC1(N2CCCCC2)CCCCC1)c1cc(F)c(F)cc1Cl` was tested, and the activity, negative = inhibition was inactive: -1.71%.
For `COc1ccc(C(=O)NCC2(N(C)C)CCCCC2)cc1`, the activity, negative = inhibition was inactive: -0.74%.
For `Cc1cc(C(=O)NCC2(N3CCCCC3)CCCCC2)ccc1[N+](=O)[O-]`, the activity, negative = inhibition was inactive: -1.65%.
`CCN1CCCC(OC(=O)C2(O)c3ccccc3C=Cc3ccccc32)C1` (centres undefined) was tested, and the activity, negative = inhibition was inactive: 2.59%.
With `O=C(NCC1(N2CCCCC2)CCCCC1)c1cccc(Br)c1` the activity, negative = inhibition was inactive: 3.57%.
`CN(C)C1(CNC(=O)c2ccc(Br)cc2)CCCCC1` was tested, and the activity, negative = inhibition was inactive: -0.954%.
`COc1cc(C(=O)NCC2(N(C)C)CCCCC2)c([N+](=O)[O-])cc1OC` was tested, and the activity, negative = inhibition was inactive: -8.8%.
For `COc1cccc(C(=O)NCC2(N3CCCCC3)CCCCC2)c1`, the activity, negative = inhibition was inactive: 0.671%.
With `COc1ccc(Cl)cc1C(=O)NCC1(N(C)C)CCCCC1` the activity, negative = inhibition was inactive: 1.99%.
`O=C(NCC1(N2CCCCC2)CCCCC1)c1cccc(Cl)c1` was tested, and the activity, negative = inhibition was inactive: -0.127%.
With `O=C(OC1CN2CCC1CC2)C(CO)(c1ccccc1)c1ccccc1` (centres undefined) the activity, negative = inhibition was inactive: 0.147%.
With `COc1ccc(Br)c(C(=O)NCC2(N3CCCCC3)CCCCC2)c1` the activity, negative = inhibition was inactive: -7.44%.
`CC(C)Oc1ccc(C(=O)NCC2(N(C)C)CCCCC2)cc1` was tested, and the activity, negative = inhibition was inactive: -0.126%.
In the case of `CN(C)c1cccc(C(=O)NCC2(N(C)C)CCCCC2)c1`, the activity, negative = inhibition is reported as inactive: -0.144%.
